Earlier results, collected in publication PMC4308941, “A crossover randomized comparative study of zofenopril and ramipril on cough reflex and airway inflammation in healthy volunteers” (Cough (London, England), 2014).

Conditions: based on urinary recovery; cited from earlier work

Q: Which extent of absorption does the source give for `CCOC(=O)[C@H](CCc1ccccc1)N[C@@H](C)C(=O)N1[C@H](C(=O)O)C[C@@H]2CCC[C@@H]21` [ramipril] here?
A: at least 56%
